Experimental findings from patent US20030207792A1, “Treating cancer” (priority 2002, published 2003) are described below.

Holding throughout (assay type): cell-based
One experiment has as its system pRb. As to the kind of experiment: Western blot analysis of pRb level in HCT116 cells 48 h after oligonucleotide transfection. Particulars: oligonucleotide 1 μM with lipofectin 19 μg/ml, extracts after 48 h, Western blot band intensity. The protocol:
(§1) Sense and antisense phosphorothionate oligonucleotide with the sequence set out in SEQ1 and SEQ2 respectively were synthesised in a 380B DNA synthesiser. Each oligonucleotide was premixed with lipofectin reagent and diluted in DMEM (Gibco). 6 cm plates of HCT116 cells at 40-50% confluence were rinsed once with 4 ml serum free DMEM and transfected with the oligonucleotides at a final concentration of 1 μM and the lipofectin reagent at a final concentration of 19 μg/ml according to the manufacturer's instructions (Life Technologies Inc., Gaithersburg, Md.). After 4 hours, Foetal Calf Serum (Gibco) was added to a final concentration of 10%. A lipofectin only transfection was performed as a control. Cell extracts were harvested after 48 h and examined by Western blot analysis with a pRb antibody. Equal loading of protein samples was confirmed by Coomassie blue staining or by immunoreactivity with an anti-actin antibody (Sigma). The intensities of the Rb bands were quantised with an image scanner (Molecular Dynamics). […] The treatment with the sense oligonucleotide led to about a 5% reduction in the level of pRb. […] Apoptosis in the cultures 48 h after transfection was tested for using the TUNEL assay. An in situ apoptosis detection kit ApopTag (Oncor, Gaithersburg, Md.) was used as recommended by the manufacturer. […]
In general terms: In western blotting, separated proteins are transferred to a membrane and probed.

The subject of experiment [1] is HCT116 cells. Put plainly: Growth curves of transfected HCT116 cultures. Particulars: oligonucleotide 1 μM with lipofectin. The protocol:
as §1

Experiment [2] deals with HCT116 cells. Put plainly: TUNEL assay (ApopTag) for apoptosis 48 h after transfection. Particulars: oligonucleotide 1 μM. How it is done: as §1

5′-GTCATGCCGCCCAAAACC-3′: the “reduction in the level of pRb” value with pRb was 5%. Moreover, the “effect on growth (growth curves) compared with the lipofectin-treated control culture” value in the experiment on HCT116 cells [1] is reported as “no significant effect on growth”. Also, the “percentage of TUNEL positive cells” value with HCT116 cells [2] is on record as 3+/−0.5%.
